The series concerns the molecule itself. Briefly: negative-stain transmission electron microscopy; 100 µM TADC, quiescent, 37 °C, 15 h and 30 h, no cofactor; 20 mM sodium phosphate pH 8, 1 mM DTT, 1.1 mM CaCl2; fibril formation (self-assembly).

B1: Tau AD core fragment (TADC, tau 306–378) (domain or fragment, UniProt P10636-8 306-378, looked up)
chain: VQIVYKPVDLSKVTSKCGSLGNIHHKPGGGQVEVKSEKLDFKDRVQSKIGSLDNITHVPGGGNKKIETHKLTF
notes: plasmid by gene synthesis (Genscript); source: E. coli, purified (heating at 80 °C, cation exchange, SEC of monomers after 7.5 M urea with 50 mM DTT)
Turning to B1, the binding result was “binds”.
